This is an account of results in patent US9670250B2, “Alpha-helical peptidomimetic inhibitors and methods using same” (The Trustees of the University of Pennsylvania, priority 2012, dated 2017).

One assay concerns the target T1, Calpain (Calpain-1) (Homo sapiens, UniProt P07384).
T1 sequence (P07384 1-714): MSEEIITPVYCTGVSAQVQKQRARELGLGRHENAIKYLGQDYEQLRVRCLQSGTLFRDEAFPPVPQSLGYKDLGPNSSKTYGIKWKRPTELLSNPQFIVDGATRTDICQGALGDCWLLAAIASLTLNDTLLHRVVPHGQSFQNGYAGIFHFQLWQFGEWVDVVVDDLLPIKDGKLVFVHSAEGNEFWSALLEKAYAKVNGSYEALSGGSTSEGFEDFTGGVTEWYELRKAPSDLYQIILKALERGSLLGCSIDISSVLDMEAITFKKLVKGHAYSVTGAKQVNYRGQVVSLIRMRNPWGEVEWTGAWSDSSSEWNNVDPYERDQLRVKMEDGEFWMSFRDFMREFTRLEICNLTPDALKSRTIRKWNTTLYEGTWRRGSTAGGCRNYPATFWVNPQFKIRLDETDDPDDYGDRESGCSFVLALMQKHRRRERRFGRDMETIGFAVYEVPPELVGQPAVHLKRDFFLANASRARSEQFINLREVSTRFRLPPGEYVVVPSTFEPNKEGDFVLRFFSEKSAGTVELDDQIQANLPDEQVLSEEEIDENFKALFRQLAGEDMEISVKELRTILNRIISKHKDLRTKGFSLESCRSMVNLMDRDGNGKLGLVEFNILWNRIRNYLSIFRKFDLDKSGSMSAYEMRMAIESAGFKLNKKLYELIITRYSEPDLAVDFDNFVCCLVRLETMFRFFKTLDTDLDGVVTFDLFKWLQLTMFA
T1 sequence (P04632 1-268 partner): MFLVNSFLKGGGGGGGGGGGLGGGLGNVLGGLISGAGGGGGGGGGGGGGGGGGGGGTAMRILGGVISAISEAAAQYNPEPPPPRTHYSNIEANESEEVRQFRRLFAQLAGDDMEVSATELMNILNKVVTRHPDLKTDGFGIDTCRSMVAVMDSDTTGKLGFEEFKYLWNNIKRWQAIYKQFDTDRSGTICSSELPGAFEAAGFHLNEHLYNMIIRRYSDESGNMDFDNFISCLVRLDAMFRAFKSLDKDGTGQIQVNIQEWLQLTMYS
Put plainly: in vitro fluorescence-based protease inhibition assay, calpain. The conditions noted are these: Table 4, calpain inhibitors. The class given is biochemical. The text has this:
(§1) Thus, the present invention includes a series of potent and highly specific α-helical inhibitors for papain family cysteine proteases. […] These short α-helical peptidomimetic inhibitors are modeled after the natural pro-domain sequence but contain a cysteine substitution at specific residues in i,i+4 positions, as shown in FIG. 2B. These cysteine residues are used for stabilization of the helix utilizing an appropriate linker (Muppidi, et al., 2011, Chem Commun (Camb) 47:9396-9398). After synthesis, each inhibitor was tested against its respective protease using an in vitro fluorescence-based assay. For each enzyme, at least one inhibitor was identified that is relatively potent and highly specific for its individual protease. These inhibitors can be modified or otherwise optimized to attain higher potency and selectivity through identification of key interactions between the inhibitor and the active site amino acid residues. Such optimization involves visual examination of the protease crystal structure, and substitution with either non-natural or natural amino acids to exploit possible crucial non-covalent protein ligand interactions, such as hydrogen bond, electrostatic, hydrophobic, and Van der Waals interactions.

For the next assay, the target named is T2, Cathepsin K (Homo sapiens, UniProt P43235).
T2 sequence (P43235 115-329): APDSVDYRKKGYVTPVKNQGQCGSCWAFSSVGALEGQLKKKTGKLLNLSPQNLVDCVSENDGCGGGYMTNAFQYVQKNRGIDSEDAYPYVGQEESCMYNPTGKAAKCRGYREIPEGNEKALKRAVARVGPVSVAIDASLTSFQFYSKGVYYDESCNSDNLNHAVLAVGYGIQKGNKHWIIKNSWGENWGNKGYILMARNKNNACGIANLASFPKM
Put plainly: in vitro fluorescence-based protease inhibition assay, cathepsin K. Format: biochemical. To be noted: Table 4, calpain inhibitors.
Source text: as §1

As to `CC[C@H](C)[C@H](NC(=O)[C@H](C)NC(=O)CCN)C(=O)N1CCC[C@H]1C(=O)N1CCC[C@H]1C(=O)N[C@@H](CCCCN)C(=O)N[C@@H](Cc1ccc(O)cc1)C(=O)N[C@H]1CSCc2cccc(c2)CSC[C@@H](C(=O)O)NC(=O)[C@H](CC(C)C)NC(=O)[C@H](CC(C)C)NC(=O)[C@H](CCC(=O)O)NC1=O` [compound 70], the results for the Ki at Calpain (Calpain-1) and at Cathepsin K were 10.7 ± 3.5 µM and above 100 µM, respectively.
